Laboratory results as given in ChEMBL document CHEMBL4330158, “Prenylated Flavonoids from the Roots and Rhizomes of Sophora tonkinensis and Their Effects on the Expression of Inflammatory Mediators and Proprotein Convertase Subtilisin/Kexin Type 9” (J Nat Prod, 2019).
Calls of active or inactive are those of the source. The calls are words filed in the database; no cut-off is given here.

Tested on: 5'-AMP-activated protein kinase (Homo sapiens)
Experiment: Induction of AMPK phosphorylation in human HepG2 cells at 4 to 20 uM by Western blot analysis

Activity: Active
SMILES: CC(C)=CCc1c(O)ccc2c1OC[C@H]1c3ccc4c(c3O[C@@H]21)OC(C)(C)C=C4 [ERYBREADIN D]
